According to PMC10619633 (Chemical Science, 2023):

Assay: Octanol/PBS partition coefficient
Assay type: physicochemical
Conditions: room temperature, PF6- salts
Method in brief: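 Partitioning measured between octanol and PBS; PBS replaced water to limit pH effects on log P. Complexes were tested as PF6− salts, whereas the biological assays used chloride salts.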

[Ru(Bphen)2(bpy-(NH CH 2CH2NH2)2-L)]2+(2PF6-).(L= N4-Succinoylsulfanilamide) [complex 5]
log P (octanol/PBS partition coefficient): greater than 1
